Values of other authors as cited in patent publication US10028966B2 (Avalyn Pharma Inc., priority 2014, dated 2018).

Conditions: CFC MDI, 2 mg per puff, healthy volunteers; cited from earlier work

Substance: L-lysine-N-acetylcysteinate [NAL]
- fraction of dose able to reach the lungs: approximately 10%
